The numbers were not newly measured in patent US20080200635A1, “POLYSILANE COMPOUND AND SYNTHESIS METHOD, ULTRAVIOLET-RAY CURABLE INK COMPOSITION, INKJET RECORDING METHOD AND APPARATUS, AND INK CONTAINER” (SEIKO EPSON CORPORATION, priority 2007, published 2008), which cites them from elsewhere.

For the series the following is noted: primary irritation index; cited from earlier work.

Regarding Glycerin PO-modified triacrylate, the P.I.I. was 0.8.
